Data as given in ChEMBL document CHEMBL3297727, “Endiandric acid analogues from Beilschmiedia ferruginea as dual inhibitors of Bcl-xL/Bak and Mcl-1/Bid interactions” (J Nat Prod, 2014).

By UniProt entry, the sequences of proteins in these tests, tags left out.
UniProt Q07820, whole entry: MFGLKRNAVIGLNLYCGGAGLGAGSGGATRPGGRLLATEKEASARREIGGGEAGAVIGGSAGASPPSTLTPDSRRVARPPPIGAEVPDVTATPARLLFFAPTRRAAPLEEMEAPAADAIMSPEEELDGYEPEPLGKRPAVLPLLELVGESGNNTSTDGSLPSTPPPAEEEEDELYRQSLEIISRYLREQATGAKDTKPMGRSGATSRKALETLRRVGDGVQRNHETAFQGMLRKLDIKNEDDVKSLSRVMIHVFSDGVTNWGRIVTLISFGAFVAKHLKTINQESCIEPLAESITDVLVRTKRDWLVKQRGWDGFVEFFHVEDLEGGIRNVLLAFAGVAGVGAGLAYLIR

Molecular target: Induced myeloid leukemia cell differentiation protein Mcl-1 (Homo sapiens, UniProt Q07820)
Assay: Displacement of fluorescein-labeled BID from His-tagged MCL-1 (unknown origin) after 1 hr by fluorescence polarization assay

Ki: 20.8 µM
Compound: CN(C)CC[C@H](CSc1ccccc1)Nc1ccc(S(=O)(=O)NC(=O)c2ccc(N3CCN(Cc4ccccc4-c4ccc(Cl)cc4)CC3)cc2)cc1[N+](=O)[O-] [ABT 737]
